Holding throughout (type): cell-based
Experiment [1] deals with Neuromedin-K receptor (Homo sapiens, UniProt P29371, Y247F). The experiment in a line: Competitive inhibition at human NK3 Y247F5.38 mutant expressed in HEK293 cells assessed as decrease in [MePhe7]NKB-induced [3H]IP accumulation after 20 mins. The following applies: read-out: pA2 (converted).
Experiment [2] addresses T1, Neuromedin-K receptor (Homo sapiens, UniProt P29371, Y315F). The experiment in a line: Displacement of radioligand [3H]osanetant at human NK3 Y315F6.51 mutant expressed in HEK293 cells.
For experiment [3], the target named is T2, Neuromedin-K receptor (Homo sapiens, UniProt P29371, H316W). The experiment in a line: Competitive inhibition at human NK3 H316W6.52 mutant expressed in HEK293 cells assessed as decrease in [MePhe7]NKB-induced [3H]IP accumulation after 20 mins. To be noted: read-out: pA2 (converted).
Experiment [4] deals with Neuromedin-K receptor (Homo sapiens, UniProt P29371, H316F). The experiment in a line: Displacement of radioligand [3H]osanetant at human NK3 H316F mutant expressed in HEK293 cells.
Experiment [5] concerns the target Neuromedin-K receptor (Homo sapiens, UniProt P29371, Y247W). The experiment in a line: Displacement of radioligand [3H]osanetant at human NK3 Y247W mutant expressed in HEK293 cells.
Experiment [6] addresses T1, Neuromedin-K receptor. The experiment in a line: Competitive inhibition at human NK3 Y315F6.51 mutant expressed in HEK293 cells assessed as decrease in [MePhe7]NKB-induced [3H]IP accumulation after 20 mins. The following applies: read-out: pA2 (converted). In a few lines:
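HEK293 cells transiently expressing human NK3 WT or mutant, labeled with myo-[³H]inositol in LiCl buffer. Antagonist preincubated 20 min at 37 °C, then [MePhe⁷]NKB (0.01 nM–1 μM) added for 45 min at 37 °C. [³H]IP read by SPA beads. Schild analysis of EC50 shift and Emax depression across increasing antagonist concentrations gives pA2, slope and mode of antagonism.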

Chains of the proteins cited; added tags and fusions are not shown.
UniProt P29371, whole entry Y247F: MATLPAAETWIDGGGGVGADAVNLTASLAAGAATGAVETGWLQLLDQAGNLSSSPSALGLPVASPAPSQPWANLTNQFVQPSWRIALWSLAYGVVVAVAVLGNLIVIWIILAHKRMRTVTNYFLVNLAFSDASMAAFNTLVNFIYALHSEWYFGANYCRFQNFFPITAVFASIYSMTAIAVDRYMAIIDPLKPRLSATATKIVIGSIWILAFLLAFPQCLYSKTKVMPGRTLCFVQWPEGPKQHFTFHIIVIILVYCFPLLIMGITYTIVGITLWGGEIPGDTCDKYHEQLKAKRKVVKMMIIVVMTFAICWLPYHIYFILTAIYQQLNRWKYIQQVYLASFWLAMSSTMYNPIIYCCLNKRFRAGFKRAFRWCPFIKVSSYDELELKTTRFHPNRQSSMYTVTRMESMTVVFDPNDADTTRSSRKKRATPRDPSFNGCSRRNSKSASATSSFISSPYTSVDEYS
UniProt P29371, whole entry Y315F: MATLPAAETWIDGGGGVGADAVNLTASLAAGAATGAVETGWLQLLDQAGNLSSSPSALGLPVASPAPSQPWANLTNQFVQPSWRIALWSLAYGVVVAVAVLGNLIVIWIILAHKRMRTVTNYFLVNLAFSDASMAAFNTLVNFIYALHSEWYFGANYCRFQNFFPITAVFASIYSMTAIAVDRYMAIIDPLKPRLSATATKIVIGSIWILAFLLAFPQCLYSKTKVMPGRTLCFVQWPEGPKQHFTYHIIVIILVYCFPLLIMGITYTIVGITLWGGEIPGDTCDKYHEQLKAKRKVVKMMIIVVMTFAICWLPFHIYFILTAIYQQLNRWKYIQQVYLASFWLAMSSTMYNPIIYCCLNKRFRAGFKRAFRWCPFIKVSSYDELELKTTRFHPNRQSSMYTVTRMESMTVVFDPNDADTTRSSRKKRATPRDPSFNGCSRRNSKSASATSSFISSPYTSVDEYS
UniProt P29371, whole entry H316W: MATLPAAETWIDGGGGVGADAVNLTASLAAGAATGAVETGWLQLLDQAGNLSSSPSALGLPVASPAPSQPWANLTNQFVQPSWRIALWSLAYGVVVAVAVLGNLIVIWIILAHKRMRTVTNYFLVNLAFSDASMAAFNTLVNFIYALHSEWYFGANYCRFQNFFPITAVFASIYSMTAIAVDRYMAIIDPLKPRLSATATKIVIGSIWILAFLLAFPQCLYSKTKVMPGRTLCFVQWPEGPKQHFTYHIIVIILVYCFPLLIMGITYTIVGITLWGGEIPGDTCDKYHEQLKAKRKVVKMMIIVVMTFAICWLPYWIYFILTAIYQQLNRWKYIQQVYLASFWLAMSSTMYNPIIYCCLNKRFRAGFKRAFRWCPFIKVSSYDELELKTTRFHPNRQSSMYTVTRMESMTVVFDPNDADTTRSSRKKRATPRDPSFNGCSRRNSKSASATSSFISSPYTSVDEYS
UniProt P29371, whole entry H316F: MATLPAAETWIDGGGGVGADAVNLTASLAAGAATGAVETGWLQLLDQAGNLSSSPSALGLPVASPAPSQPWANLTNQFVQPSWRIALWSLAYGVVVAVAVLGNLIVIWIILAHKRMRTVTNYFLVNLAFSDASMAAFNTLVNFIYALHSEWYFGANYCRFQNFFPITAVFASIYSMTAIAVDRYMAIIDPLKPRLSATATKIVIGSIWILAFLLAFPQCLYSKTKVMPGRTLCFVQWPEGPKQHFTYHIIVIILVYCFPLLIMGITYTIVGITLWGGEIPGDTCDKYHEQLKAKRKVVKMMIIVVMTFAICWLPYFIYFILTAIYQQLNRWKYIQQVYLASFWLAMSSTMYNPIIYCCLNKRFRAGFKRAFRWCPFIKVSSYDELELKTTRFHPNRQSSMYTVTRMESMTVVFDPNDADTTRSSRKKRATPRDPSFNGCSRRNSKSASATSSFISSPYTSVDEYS
UniProt P29371, whole entry Y247W: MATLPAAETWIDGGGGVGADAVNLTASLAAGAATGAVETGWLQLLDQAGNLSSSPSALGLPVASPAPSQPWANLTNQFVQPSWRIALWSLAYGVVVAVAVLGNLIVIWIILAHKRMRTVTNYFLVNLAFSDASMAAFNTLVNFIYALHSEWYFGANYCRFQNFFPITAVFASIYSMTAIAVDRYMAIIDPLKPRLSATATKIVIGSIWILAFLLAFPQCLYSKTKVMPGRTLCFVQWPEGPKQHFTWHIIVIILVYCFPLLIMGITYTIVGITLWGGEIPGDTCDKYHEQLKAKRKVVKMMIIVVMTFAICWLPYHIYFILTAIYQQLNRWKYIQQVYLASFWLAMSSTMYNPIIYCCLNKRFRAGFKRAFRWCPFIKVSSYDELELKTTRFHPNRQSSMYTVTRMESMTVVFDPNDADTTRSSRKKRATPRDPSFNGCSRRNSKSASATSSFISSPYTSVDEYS

The target in experiment [7] is T2, Neuromedin-K receptor. The experiment in a line: Displacement of radioligand [3H]osanetant at human NK3 H316W mutant expressed in HEK293 cells.

For orientation: Ki means the dissociation constant of the complex between target and ligand, obtained from inhibition or displacement.

`CC[C@H](NC(=O)c1c(O)c(-c2ccccc2)nc2ccccc12)c1ccccc1` [TALNETANT]: the Kb at Neuromedin-K receptor [1] was 2.88 nM; at Neuromedin-K receptor [3] it was 229 nM; at Neuromedin-K receptor [6], 2.34 nM. Besides, the Ki at Neuromedin-K receptor [2] was determined as 1.7 nM; at Neuromedin-K receptor [4] it was 10.6 nM; on Neuromedin-K receptor [5] it was 37.2 nM; at Neuromedin-K receptor [7] it was 122 nM.

The values above are taken from ChEMBL document CHEMBL2203099, “Identification of a crucial amino acid in the helix position 6.51 of human tachykinin neurokinin 1 and 3 receptors contributing to the insurmountable mode of antagonism by dual NK₁/NK₃ antagonists” (J Med Chem, 2012).
